Test results: ChEMBL document CHEMBL4020814, “Synthesis, Binding Mode, and Antihyperglycemic Activity of Potent and Selective (5-Imidazol-2-yl-4-phenylpyrimidin-2-yl)[2-(2-pyridylamino)ethyl]amine Inhibitors of Glycogen Synthase Kinase 3” (J Med Chem, 2017)
pIC50: −log10 of the molar value.

The chains behind the UniProt entries cited, without tags or fusion partners. Where a name states a change or a piece, a line headed by the entry shows the natural chain unless it says otherwise.
UniProt P49841: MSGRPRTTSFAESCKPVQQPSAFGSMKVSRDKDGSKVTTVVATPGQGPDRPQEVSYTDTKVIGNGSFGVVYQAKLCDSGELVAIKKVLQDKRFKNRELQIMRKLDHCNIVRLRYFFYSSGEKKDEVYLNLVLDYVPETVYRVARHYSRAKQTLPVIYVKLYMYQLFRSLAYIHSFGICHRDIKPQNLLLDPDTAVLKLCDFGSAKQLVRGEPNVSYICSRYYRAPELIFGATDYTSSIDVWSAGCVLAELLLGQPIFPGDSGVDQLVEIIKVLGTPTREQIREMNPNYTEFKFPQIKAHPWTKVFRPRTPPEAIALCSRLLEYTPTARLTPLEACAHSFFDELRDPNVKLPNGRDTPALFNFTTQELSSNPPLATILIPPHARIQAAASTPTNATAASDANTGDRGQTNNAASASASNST

Molecular target: Glycogen synthase kinase-3 beta (Homo sapiens, UniProt P49841)
Experiment: Inhibition of GSK3beta (unknown origin)

pIC50: 6.70
Compound: O=C1Nc2ccccc2/C1=C1/Nc2ccccc2/C1=N\O
